## Apparent affinities of Ab-14 variants for a coronavirus HR2 peptide

The measurements come from Engelhart et al. 2022 (doi:10.1038/s41597-022-01779-4) through the FLAb antibody collection.

Target peptide (SARS-CoV-2 spike, HR2 region): PDVDLGDISGINAS

Parent scFv Ab-14: VH joined to VL by the linker GGGGSGGGGSGGGGS. Changes lie in the light chain CDRs alone.
VH: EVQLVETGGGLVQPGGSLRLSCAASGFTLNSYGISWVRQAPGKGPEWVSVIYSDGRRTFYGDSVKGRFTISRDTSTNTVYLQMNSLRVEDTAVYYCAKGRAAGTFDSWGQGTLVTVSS
VL: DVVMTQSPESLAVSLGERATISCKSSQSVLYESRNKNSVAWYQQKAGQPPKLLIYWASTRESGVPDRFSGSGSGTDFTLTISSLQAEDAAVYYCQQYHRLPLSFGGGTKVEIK

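The starting antibody came from a phage panning campaign against this peptide. The library (AAYL50) carries one to three amino acid substitutions per variant, with no insertions or deletions. The assay is AlphaSeq: two haploid yeast populations carry antibody and antigen on their surface. Binding brings cells together so that they mate, and sequencing counts the barcode pairs among the diploids. Read counts were normalised to the haploid input and turned into Kd by a linear fit to BCL2-family pairs of known affinity, for each replicate. There are three technical replicates.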

The parent's light chain CDRs are KSSQSVLYESRNKNSVA, WASTRES, QQYHRLPLS; each variant's own CDRs replace them letter for letter.
Affinities are written as log10 Kd with Kd in nM; a lower number is a better binder.
A pair that was not seen in that replicate is written "ND"; this usually means weak binding, but a binder can also be missed.
In this assay the parent's reference entry averaged 0.65; its copy inside this library read 1.68.

CDR-L1 | CDR-L2 | CDR-L3 | log10 Kd, replicates
KCSQSVLYEYRNKNKVA | WASTRES | QQYHRLPLS | ND / ND / ND
KSSQSVLYESRNKNLVA | WWSTRES | QQYHRLPLS | ND / ND / ND
KSSQQVLYEMRNKNSVA | HASTRES | QQYHRLPLS | -0.02 / 0.32 / 0.16
KSSQSVLYESLNKNSVA | WASTRES | QQEHRNPLS | ND / 4.38 / ND
KSSQSVLYNSRNKNSVA | WASTRES | NQFHRLPLS | ND / ND / ND
KSSQEVLYESRNKNSTA | WASTRQS | QQYHRLPLS | ND / ND / 5.46
KSSQSVLYESRNKNSVA | WASTRES | QQYCRLMLP | 4.49 / ND / ND
KSSQSVLYESGNKNSVA | WASDRES | QQYHRLILS | 1.80 / 1.66 / 2.46
KSCQSVLYHSRNKNSVA | WASTRES | QYYHRLPLS | ND / 4.51 / ND
KSKQSVLYEWRNKNSVP | WASTRES | QQYHRLPLS | 4.75 / ND / ND
KSSQSVLYDSRNKNSVA | WGSTRES | QQDHRLPLS | ND / 4.08 / ND
ASSQSRLYESRNKNSVA | WASTRES | QQYHRLPLK | ND / 4.07 / 5.20
PSSQSVLYESRNKNSEA | WASTRES | QQYLRLPLS | ND / ND / ND
KSSQSVRYESRNKNSVA | WASTRES | QDYHRLPLS | 0.59 / 0.81 / 0.71
KSSQSVLTESRNKNSVA | WMSTRES | QQYHRLPLH | 1.84 / 2.77 / 1.72
KSSQSVLKESRNKNSVA | WASTRHS | QQYLRLPLS | ND / ND / ND
KSSNSVLYESRNKTSVA | WASTRES | QQYHALPLS | 2.33 / 1.97 / 2.50
KSSQSVLYFSRNKNSVA | WASTRES | QQYHRLPLD | ND / ND / ND
KSKQSVLYESRNKNSVA | WASTRES | QQAHRLELS | ND / ND / ND
KSSQSVLYESRNKNSLA | WPSTRES | QQYHRLPLS | ND / ND / ND
KSSQSVLYKSRNKNSTA | WASTRES | QQYHRLSLS | ND / ND / ND
KSSQCVLYESRNKNSQA | KASTRES | QQYHRLPLS | ND / ND / ND
KSSQSVLYESRNKNSFA | WDSTRES | QQYHGLPLS | ND / ND / ND
KSSQSVLAESRNKNSVA | WASTRES | QQGHRLQLS | 0.32 / 0.68 / 0.39
KSSTSVLYESRNKNSVA | WASTRTS | QQYHRLPLS | 0.76 / 0.90 / 0.96
KSSQSVLYERRNKNSVA | WANTRES | QQYHRLPLL | 2.09 / 2.00 / 1.91
KSFRSVLYESRNKNSVA | WASTRES | QQYHRLSLS | 3.44 / ND / ND
KSSQSVLYESRRKNSVA | WAKTRES | QQYERLPLS | 3.29 / ND / 3.91
KSSSSVLYESRNKNSVA | WASTRES | QQYHCLPLS | 3.99 / 3.27 / 4.41
TSSQSVRYESRNKNSVA | WASTRES | QQYHRLPLS | 2.34 / 2.45 / 2.36
KSSQSVGHESRNKNSVA | CASTRES | QQYHRLPLS | ND / ND / ND
KSFQSELYESRNKNSVA | WASTREY | QQYHRLPLS | 0.59 / 0.87 / 0.78
KSTQSVLYESRNKNKVD | WASTRES | QQYHRLPLS | ND / 4.49 / 4.45
KSAQSVLYLSRNKNSVA | WASTRSS | QQYHRLPLS | 2.05 / 2.08 / 2.70
KSSQSVLYESRNKNSVP | WASSRES | QQYHRLPLS | ND / 5.06 / 4.27
KSSQSVLYESRNKASVA | WRSTRES | QQYHRLPLD | ND / ND / ND
ESSQSVLYESRNKNSVA | WAATRES | QQYHRLPLY | 3.28 / 3.13 / 3.81
KSSQFVCYESRNKNSVA | WASTRES | QQYHRLPLK | 3.64 / 3.45 / 3.82
KSSQSVLYESRNKNSPA | WASTFES | QQYHRMPLS | 5.40 / ND / ND
KSSQSVLYESRNMNMVA | WASTRES | QFYHRLPLS | 3.59 / 3.27 / 5.38
KQSQSVLYESRHKNSVA | WASTRES | QIYHRLPLS | ND / 5.21 / 3.70

For reference, 6 entries of the list once more:

CDR-L1 | CDR-L2 | CDR-L3 | log10 Kd, replicates
KSSQSVLYKSRNKNSTA | WASTRES | QQYHRLSLS | ND / ND / ND
KSTQSVLYESRNKNKVD | WASTRES | QQYHRLPLS | ND / 4.49 / 4.45
KSSQSVLYESRNMNMVA | WASTRES | QFYHRLPLS | 3.59 / 3.27 / 5.38
KCSQSVLYEYRNKNKVA | WASTRES | QQYHRLPLS | ND / ND / ND
KSSQSVGHESRNKNSVA | CASTRES | QQYHRLPLS | ND / ND / ND
KSFQSELYESRNKNSVA | WASTREY | QQYHRLPLS | 0.59 / 0.87 / 0.78

Nonspecific signal, from three strains lacking the peptide, appeared in 18% of pairings of library AAYL50, centred on 4.19 (5% of these signals below 2.99); values are not corrected for it.